Numbers after ± are expanded uncertainties.
Conditions: Crystal; visual observation

`CCC[N+](CCC)(CCC)CCC.[Cl-]` [tetrapropylammonium chloride] gave a Normal melting temperature of 229.2 ± 0.5 °C.

Source: the NIST ThermoML archive (doi:10.1016/j.fluid.2019.04.019)
